The record followed here is PubChem BioAssay AID651704 (Broad Institute, 2012).

Chains of the proteins cited; added tags and fusions are not shown.
UniProt P42568, whole entry: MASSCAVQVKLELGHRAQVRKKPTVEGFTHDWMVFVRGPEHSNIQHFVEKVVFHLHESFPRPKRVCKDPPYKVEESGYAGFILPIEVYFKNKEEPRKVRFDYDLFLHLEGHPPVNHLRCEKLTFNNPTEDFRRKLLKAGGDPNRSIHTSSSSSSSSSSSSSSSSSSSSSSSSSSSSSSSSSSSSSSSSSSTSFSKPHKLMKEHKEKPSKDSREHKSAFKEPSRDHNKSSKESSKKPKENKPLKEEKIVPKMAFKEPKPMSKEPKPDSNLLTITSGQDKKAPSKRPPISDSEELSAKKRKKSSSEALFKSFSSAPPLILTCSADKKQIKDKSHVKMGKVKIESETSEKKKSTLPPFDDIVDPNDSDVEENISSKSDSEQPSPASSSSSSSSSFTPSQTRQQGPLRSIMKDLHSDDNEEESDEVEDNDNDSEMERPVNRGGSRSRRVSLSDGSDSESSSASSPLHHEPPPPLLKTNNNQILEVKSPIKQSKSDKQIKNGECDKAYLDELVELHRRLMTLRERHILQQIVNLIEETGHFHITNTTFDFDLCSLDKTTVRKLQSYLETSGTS

Molecules are shown by their SMILES. The list shows a part of the results, in another mix than the full data. Active and inactive are the calls of the source.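 How the source made its calls: active means every replicate reaching a set inhibition limit, whatever the replicate mean (cut at about 25% in these data); inconclusive means mean inhibition reaches that limit but some replicates miss it; inactive means the rest.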

The assay addresses Protein AF-9 (Homo sapiens) (UniProt P42568). Nature of the assay: inhibitors of AF4 peptide binding to AF9, primary screen, biochemical, AlphaScreen, biotin-AF4 peptide, FLAG-AF9, single point (AID 651704).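 Further: 0% = plate neutral control median and 100% = total signal loss.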 Particulars: at 10 µM, stronger effect = higher value. For orientation: In Alpha technology, singlet oxygen from a donor bead excites a nearby acceptor bead.
The inhibition is the drop in the measured response relative to a control, in per cent. As to `CN1CCC(Nc2ccc(Cl)cc2)CC1`, the inhibition was inactive: 1.83%.

Turning to `COc1cccc(C(=O)N(c2cc(C)cc(C)c2)C2CCN(C(=O)OC(C)(C)C)CC2)c1`, the inhibition is inactive: 1.06%.

Regarding `COc1cccc(C(c2nnnn2C2CCCC2)N2CCC(n3c(=O)[nH]c4ccccc43)CC2)c1OC` (stereo unspecified), the inhibition is inactive: 5.11%.

With `COc1cc(OC)cc(C(=O)NCC2(N3CCOCC3)CCCCC2)c1`, the inhibition is inactive: -0.996%.

Take `CC(C)(C)OC(=O)N1CCC(Nc2ccccc2)CC1`: the inhibition is inactive: 0.845%.

Consider `NN(c1ccccc1)C1CCN(CCc2ccccc2)CC1`, for which the inhibition is inactive: 11.9%.

Consider `O=C(O)C1(Nc2ccccc2)CCN(Cc2ccccc2)CC1`, for which the inhibition was inactive: 3.87%.

Consider `O=c1[nH]c2ccccc2n1C1CCN(C(c2cc3ccccc3o2)c2nnnn2C2CCCC2)CC1` (stereo unspecified), for which the inhibition is inactive: 3.21%.

Take `CCCOc1ccc(C(=O)NCC2(N(C)C)CCCCC2)cc1`: the inhibition is inactive: 0.612%.

Regarding `CN1CCC(Nc2ccc(F)c(Cl)c2)CC1`, the inhibition is inactive: 0.241%.

For `O=C(NCC1(N2CCCCC2)CCCCC1)c1ccco1`, the inhibition is inactive: -0.771%.

For the compound `CN(C)c1ccc(C(=O)NCC2(N3CCCCC3)CCCCC2)cc1`, the inhibition was inactive: 2.4%.

As for `Cn1c(=O)[nH]cc(N(CCCl)CCCl)c1=O`, the inhibition was inactive: 2.55%.

As for `Cc1ccccc1NC1(C#N)CCN(Cc2ccccc2)CC1`, the inhibition is inactive: 1.71%.

Take `COc1ccc(C(c2nnnn2C2CCCCC2)N2CCC(n3c(=O)[nH]c4ccccc43)CC2)cc1` (stereo unspecified): the inhibition is inactive: 5.7%.

Take `CC(C)(C)n1nnnc1C(c1ccnc2ccccc12)N1CCC(n2c(=O)[nH]c3ccccc32)CC1` (stereo unspecified): the inhibition was inactive: -28.5%.

Regarding `Cc1ccc(C(=O)NCC2(N3CCCCC3)CCCCC2)o1`, the inhibition is inactive: -1.51%.

Regarding `Fc1ccccc1NC1CCN(Cc2ccccc2)CC1`, the inhibition was inactive: 3.34%.

For the compound `Cc1ccc(NC2(C#N)CCN(Cc3ccccc3)CC2)cc1`, the inhibition is inactive: -2.4%.

Take `COc1cccc(C(c2nnnn2C2CCCCC2)N2CCC(n3c(=O)[nH]c4ccccc43)CC2)c1OC` (stereo unspecified): the inhibition is inactive: -1.39%.

In the case of `CC(=O)N(c1ccccc1)C1CCNCC1`, the inhibition is inactive: -1.79%.

Turning to `COc1cc(OC)cc(C(=O)NCC2(N3CCCCC3)CCCCC2)c1`, the inhibition is inactive: 2.56%.

Take `O=c1[nH]c2ccccc2n1C1CCN(C(c2ccnc3ccccc23)c2nnnn2C2CCCCC2)CC1` (stereo unspecified): the inhibition was inactive: -0.815%.

As for `CC(C)(C)n1nnnc1C(c1cccc2ccccc12)N1CCC(n2c(=O)[nH]c3ccccc32)CC1` (stereo unspecified), the inhibition was inactive: 1.28%.

Take `CN(C)C1(CNC(=O)c2cccc(C#N)c2)CCCCC1`: the inhibition is inactive: -0.285%.

In the case of `C/C(N)=N\P(=O)(Oc1ccccc1)Oc1ccccc1`, the inhibition was inactive: 4.82%.

Consider `Cc1cc(N(CCCl)CCCl)ccc1C=O`, for which the inhibition is inactive: -2.79%.

Take `CCCN1CCC(Nc2cc(OC)cc(OC)c2)CC1`: the inhibition was inactive: 15.1%.

With `O=c1[nH]c2ccccc2n1C1CCN(C(c2ccccc2)c2nnnn2C2CCCC2)CC1` (stereo unspecified), the inhibition is inactive: 2.05%.

For the compound `N#Cc1ccc(C(=O)NCC2(N3CCCCC3)CCCCC2)cc1`, the inhibition is inactive: -1.39%.

For the compound `CC(C)(C)OC(=O)N1CCC(N(C(=O)c2ccccc2)c2ccc(Cl)cc2)CC1`, the inhibition is inactive: 2.54%.

As for `O=c1[nH]c2ccccc2n1C1CCN(C(c2cccs2)c2nnnn2C2CCCC2)CC1` (stereo unspecified), the inhibition was inactive: -0.419%.

On to `CCCCn1nnnc1C(c1cccc(OC)c1OC)N1CCC(n2c(=O)[nH]c3ccccc32)CC1` (stereo unspecified), for which the inhibition is inactive: 2.37%.

For the compound `CCOC(=O)N1CCC(Nc2ccc(C)cc2)CC1`, the inhibition was inactive: 1.16%.

On to `COc1cccc(C(c2nnnn2C(C)(C)C)N2CCC(n3c(=O)[nH]c4ccccc43)CC2)c1OC` (stereo unspecified), for which the inhibition was inactive: 4.13%.

`O=c1[nH]c2ccccc2n1C1CCN(C(c2cccs2)c2nnnn2C2CCCCC2)CC1` (stereo unspecified): the inhibition was inactive: 1.96%.

Turning to `COc1ccc(C(=O)NCC2(N3CCOCC3)CCCCC2)cc1OC`, the inhibition is inactive: -0.398%.

In the case of `O=c1[nH]c2ccccc2n1C1CCN(C(c2ccnc3ccccc23)c2nnnn2C2CCCC2)CC1` (stereo unspecified), the inhibition is inactive: -0.566%.

For `CCCCn1nnnc1C(c1ccccc1)N1CCC(n2c(=O)[nH]c3ccccc32)CC1` (stereo unspecified), the inhibition was inactive: 4.23%.

For `COc1cc(C(=O)NCC2(N3CCOCC3)CCCCC2)cc(OC)c1C`, the inhibition is inactive: 1.39%.

Consider `O=C(NCC1(N2CCOCC2)CCCCC1)c1cc(Br)ccc1Cl`, for which the inhibition was inactive: 2.9%.

Regarding `COc1ccc(C(c2nnnn2C2CCCC2)N2CCC(n3c(=O)[nH]c4ccccc43)CC2)cc1` (stereo unspecified), the inhibition was inactive: 0.316%.

In the case of `Cc1ccc(C(=O)NCC2(N(C)C)CCCCC2)o1`, the inhibition was inactive: -2.4%.

`CCCOc1ccc(C(=O)NCC2(N(C)C)CCCCC2)cc1OC`: the inhibition is inactive: -12.3%.

As for `CN1CCC(Nc2cccc(F)c2)CC1`, the inhibition is inactive: 1.58%.

On to `O=C(NCC1(N2CCCCC2)CCCCC1)c1cncc(Br)c1`, for which the inhibition was inactive: 3.49%.

As to `COc1cc(OC)c(C(=O)NCC2(N(C)C)CCCCC2)cc1OC`, the inhibition is inactive: 0.571%.

Turning to `CCC(c1nnnn1C(C)(C)C)N1CCC(n2c(=O)[nH]c3ccccc32)CC1` (stereo unspecified), the inhibition is inactive: 3.46%.

With `O=C(NCC1(N2CCOCC2)CCCCC1)c1cc(F)c(F)cc1Cl`, the inhibition is inactive: -1.04%.

As for `CCCCn1nnnc1C(c1ccnc2ccccc12)N1CCC(n2c(=O)[nH]c3ccccc32)CC1` (stereo unspecified), the inhibition was inactive: -0.313%.

In the case of `CC(C)c1ccc(NC2CCN(C(=O)OC(C)(C)C)CC2)cc1`, the inhibition was inactive: 5.93%.

Take `COc1ccc(CN(CCCl)CCCl)cc1Cl`: the inhibition was inactive: 4.09%.

Turning to `CN(C)c1cccc(C(=O)NCC2(N3CCCCC3)CCCCC2)c1`, the inhibition was inactive: 12.8%.

As for `COc1cc(C(=O)NCC2(N3CCCCC3)CCCCC2)ccc1OC(F)F`, the inhibition is inactive: -2.08%.

In the case of `CC(C)c1ccc(C(=O)NCC2(N3CCOCC3)CCCCC2)cc1`, the inhibition was inactive: 0.439%.

For the compound `COc1ccc(NC2CCN(C(=O)OC(C)(C)C)CC2)cc1`, the inhibition was inactive: -3.78%.

Regarding `CN1CCN(CCOC(=O)C(O)(c2ccccc2)c2ccccc2)CC1`, the inhibition was inactive: 1.76%.

With `CCCCn1nnnc1C(c1cccc2ccccc12)N1CCC(n2c(=O)[nH]c3ccccc32)CC1` (stereo unspecified), the inhibition was inactive: -14.8%.

On to `O=C(NCC1(N2CCCCC2)CCCCC1)c1cccc(C(F)(F)F)c1`, for which the inhibition was inactive: 6.73%.

With `CCN1CCC(Nc2ccc(Cl)cc2)CC1`, the inhibition was inactive: -0.132%.

Take `O=c1[nH]c2ccccc2n1C1CCN(C(c2ccccc2OC(F)(F)F)c2nnnn2C2CCCC2)CC1` (stereo unspecified): the inhibition is inactive: -5.12%.

For the compound `CSc1ccc(C(=O)NCC2(N3CCOCC3)CCCCC2)cc1`, the inhibition was inactive: 5.49%.

As for `O=C(NCC1(N2CCCCC2)CCCCC1)c1cccc([N+](=O)[O-])c1`, the inhibition is inactive: -0.288%.

Regarding `CC(C)(C)n1nnnc1C(c1ccccc1OC(F)(F)F)N1CCC(n2c(=O)[nH]c3ccccc32)CC1` (stereo unspecified), the inhibition was inactive: -2.17%.

With `O=C(NCC1(N2CCCCC2)CCCCC1)c1ccc(OC(F)F)cc1`, the inhibition was inactive: 3.23%.

For `CCOC(=O)N1CCC(Nc2cccc(C)c2)CC1`, the inhibition is inactive: 3.88%.

Turning to `COc1cc(C(=O)NCC2(N(C)C)CCCCC2)ccc1OC(F)F`, the inhibition is inactive: 0.142%.

Take `O=c1[nH]c2ccccc2n1C1CCN(C(c2cccc3ccccc23)c2nnnn2C2CCCC2)CC1` (stereo unspecified): the inhibition is inactive: 9.87%.

`O=c1[nH]c2ccccc2n1C1CCN(C(c2ccccc2)c2nnnn2C2CCCCC2)CC1` (stereo unspecified): the inhibition is inactive: -10.6%.

Regarding `CCCCOc1ccc(C(=O)NCC2(N3CCOCC3)CCCCC2)cc1`, the inhibition is inactive: -13.6%.

With `O=P1(N(CCCl)CCCl)SCCCS1`, the inhibition was inactive: -3.65%.

On to `CCCCn1nnnc1C(c1cc2ccccc2o1)N1CCC(n2c(=O)[nH]c3ccccc32)CC1` (stereo unspecified), for which the inhibition is inactive: -0.236%.

Turning to `O=C(NCC1(N2CCCCC2)CCCCC1)c1ccc(F)cc1`, the inhibition is inactive: 1.73%.

Take `CCOC(=O)N1CCC(Nc2ccc(F)cc2)CC1`: the inhibition is inactive: -1.43%.

`CC(C)(C)n1nnnc1C(c1ccccc1)N1CCC(n2c(=O)[nH]c3ccccc32)CC1` (stereo unspecified): the inhibition is inactive: 0.912%.

Regarding `O=C1CCN(Cc2ccccc2)CC1`, the inhibition is inactive: 2.53%.

On to `CCOc1ccc(C)cc1CN(CCCl)CCCl`, for which the inhibition was inactive: 4.2%.

As to `O=C(NCC1(N2CCCCC2)CCCCC1)c1ccc(Cl)s1`, the inhibition was inactive: 2.62%.

With `O=c1[nH]c2ccccc2n1C1CCN(C(c2cc3ccccc3o2)c2nnnn2C2CCCCC2)CC1` (stereo unspecified), the inhibition was inactive: 2.91%.

As to `O=C(OC1CN2CCC1CC2)C1c2ccccc2Oc2ccccc21` (stereo unspecified), the inhibition was inactive: 6.21%.

In the case of `COc1ccc(Cl)cc1C(=O)NCC1(N2CCOCC2)CCCCC1`, the inhibition is inactive: -21.2%.

`CCOC(=O)N1CCC(Nc2ccc(OC)cc2)CC1`: the inhibition was inactive: 7.31%.

Consider `CCCCn1nnnc1C(c1ccc(OC)cc1)N1CCC(n2c(=O)[nH]c3ccccc32)CC1` (stereo unspecified), for which the inhibition was inactive: -0.511%.

`O=C(NCC1(N2CCCCC2)CCCCC1)c1ccc(Cl)nc1`: the inhibition is inactive: 1.79%.

On to `O=c1[nH]c2ccccc2n1C1CCN(C(c2ccccc2OC(F)(F)F)c2nnnn2C2CCCCC2)CC1` (stereo unspecified), for which the inhibition was inactive: -3.5%.

As to `Cc1cc(C)cc(N(C(=O)c2ccccc2)C2CCN(C(=O)OC(C)(C)C)CC2)c1`, the inhibition was inactive: 4.54%.

Turning to `CSc1ccccc1C(=O)NCC1(N2CCCCC2)CCCCC1`, the inhibition is inactive: 4.05%.

Regarding `Cc1cccc(NC2(C#N)CCN(Cc3ccccc3)CC2)c1`, the inhibition is inactive: -2.08%.

For the compound `COc1ccc(C(=O)NCC2(N3CCCCC3)CCCCC2)cc1`, the inhibition was inactive: 2.23%.

Regarding `CC(C)(C)OC(=O)N1CCC(N(C(=O)c2ccccc2)c2ccc(F)cc2)CC1`, the inhibition was inactive: -8.04%.

With `COc1ccc(C(=O)NCC2(N3CCCCC3)CCCCC2)c(OC)c1OC`, the inhibition is inactive: 2.59%.

On to `CCC(c1nnnn1C1CCCC1)N1CCC(n2c(=O)[nH]c3ccccc32)CC1` (stereo unspecified), for which the inhibition is inactive: 6.75%.

Take `O=C(NCC1(N2CCCCC2)CCCCC1)c1ccc(=O)[nH]c1`: the inhibition is inactive: -0.184%.

In the case of `O=C(NCC1(N2CCCCC2)CCCCC1)c1cccs1`, the inhibition was inactive: 3.37%.

Consider `CCCCn1nnnc1C(CC)N1CCC(n2c(=O)[nH]c3ccccc32)CC1` (stereo unspecified), for which the inhibition was inactive: -0.88%.

Consider `CCCCn1nnnc1C(c1cccs1)N1CCC(n2c(=O)[nH]c3ccccc32)CC1` (stereo unspecified), for which the inhibition was inactive: 2.18%.
